Patent US8278309B2, “Synthetic mimetics of host defense and uses thereof” (priority 2008, dated 2012)

Assay: Hemolysis assay using human erythrocytes
Assay type: cell-based
Conditions: pH 7.4, 1 hour at 37° C., read-out: Cytotoxicity EC50 RBCs

## CC[C@H](C)[C@H](NC(=O)CN)C(=O)NCC(=O)N[C@@H](C)C(=O)N[C@H](C(=O)N[C@@H](CC(C)C)C(=O)N[C@@H](CCCCN)C(=O)N[C@H](C(=O)N[C@@H](CC(C)C)C(=O)N[C@H](C(=O)N[C@H](C(=O)NCC(=O)N[C@@H](CC(C)C)C(=O)N1CCC[C@H]1C(=O)N[C@@H](C)C(=O)N[C@@H](CC(C)C)C(=O)N[C@H](C(=O)N[C@@H](CO)C(=O)N[C@@H](Cc1c[nH]c2ccccc12)C(=O)N[C@H](C(=O)N[C@@H](CCCCN)C(=O)N[C@@H](CCCNC(=N)N)C(=O)N[C@@H](CCCCN)C(=O)N[C@@H](CCCNC(=N)N)C(=O)N[C@@H](CCC(N)=O)C(=O)N[C@@H](CCC(N)=O)C(N)=O)[C@@H](C)CC)[C@@H](C)CC)[C@@H](C)O)[C@@H](C)O)C(C)C)C(C)C [melittin, reference compound]
  HC50 at 1 h: 2 µg/mL
